Literature values as cited in patent US12269857B2, “Protein tyrosine-tyrosine analogs and methods of using the same” (Eli Lilly and Company, priority 2018, dated 2025).

Conditions: exogenously administered; cited from earlier work

For PYY3-36, the half-life is listed as 10 to 15 min.
